PubChem BioAssay AID1621 (Southern Research Specialized Biocontainment Screening …, 2009)
This is one part of the list. Results with a measured potency or affinity are listed apart. Some tests of the compounds listed are not included; inactive here does not mean inactive elsewhere. The source made the active and inactive calls. No rule for the calls is given here.

Assay: inhibition of WNV-induced cytopathic effect – cell-based, CPE readout (AID 1621)
Settings: West Nile virus-infected cells, at 10 µM, hits give high values

| Structure (SMILES) | CPE inhibition |
| --- | --- |
| CN(C)c1ccc(C(=O)NCC2(N(C)C)CCCCC2)cc1 | inactive: -0.13% |
| CN(C)C1CCCC1OC(=O)C(O)(c1ccccc1)c1ccccc1 (centres undefined) | inactive: 0.5% |
| Cc1ccccc1C(=O)NCC1(N2CCCCC2)CCCCC1 | inactive: -0.66% |
| O=C(NCC1(N2CCCCC2)CCCCC1)c1cc(F)c(F)cc1Cl | inactive: -0.37% |
| C=CCN1CCN(CCOC(=O)C(O)(c2ccccc2)c2ccccc2)CC1 | inactive: -0.1% |
| O=C(NCC1(N2CCCCC2)CCCCC1)c1cccc(Br)c1 | inactive: -0.3% |
| CCN1CCCC(OC(=O)C2(O)c3ccccc3C=Cc3ccccc32)C1 (centres undefined) | inactive: 1.15% |
| Cc1cc(C(=O)NCC2(N3CCCCC3)CCCCC2)ccc1[N+](=O)[O-] | inactive: -0.34% |
| COc1ccc(C(=O)NCC2(N(C)C)CCCCC2)cc1 | inactive: 0% |
| O=C(NCC1(N2CCCCC2)CCCCC1)c1cc([N+](=O)[O-])ccc1Cl | inactive: -0.89% |
| CN1[C@@H]2CC[C@H]1CC(OC(=O)C(O)(c1ccccc1)c1ccccc1)C2 (some centres undefined) | inactive: -0.56% |
| CC(C)N1C(=O)CC2(CCN(CCOC(=O)C(O)(c3ccccc3)c3ccccc3)CC2)C1=O | inactive: 0.25% |
| COc1cc(SC)ccc1C(=O)NCC1(N(C)C)CCCCC1 | inactive: -1.08% |
| CCN(CC)CC(C)C(C)OC(=O)C(O)(c1ccccc1)c1ccccc1 (centres undefined) | inactive: -0.33% |
| Cc1ccc(C(=O)NCC2(N3CCCCC3)CCCCC2)cc1 | inactive: -0.73% |
| O=C(OC1CN2CCC1CC2)C(CO)(c1ccccc1)c1ccccc1 (centres undefined) | inactive: 0.25% |
| COc1ccc(Br)c(C(=O)NCC2(N3CCCCC3)CCCCC2)c1 | inactive: -0.96% |
| CN(C)c1cccc(C(=O)NCC2(N(C)C)CCCCC2)c1 | inactive: 0.15% |
| CC(C)Oc1ccc(C(=O)NCC2(N(C)C)CCCCC2)cc1 | inactive: 0.22% |
| CN(C)C1(CNC(=O)c2ccc(Br)cc2)CCCCC1 | inactive: -0.46% |
| COc1cc(C(=O)NCC2(N(C)C)CCCCC2)c([N+](=O)[O-])cc1OC | inactive: -0.14% |
| COc1ccc(Cl)cc1C(=O)NCC1(N(C)C)CCCCC1 | inactive: -0.74% |
| COc1cccc(C(=O)NCC2(N3CCCCC3)CCCCC2)c1 | inactive: -1.11% |
| O=C(NCC1(N2CCCCC2)CCCCC1)c1cccc(Cl)c1 | inactive: -0.72% |
